Measured values: patent US11547697B2, “Heterocyclic compounds and uses thereof” (MILLENNIUM PHARMACEUTICALS, INC., priority 2009, dated 2023)

Chains of the proteins cited; added tags and fusions are not shown. Lines headed by an entry give the natural chain unless they say otherwise; changes in a name come on top.
UniProt P42336, whole entry: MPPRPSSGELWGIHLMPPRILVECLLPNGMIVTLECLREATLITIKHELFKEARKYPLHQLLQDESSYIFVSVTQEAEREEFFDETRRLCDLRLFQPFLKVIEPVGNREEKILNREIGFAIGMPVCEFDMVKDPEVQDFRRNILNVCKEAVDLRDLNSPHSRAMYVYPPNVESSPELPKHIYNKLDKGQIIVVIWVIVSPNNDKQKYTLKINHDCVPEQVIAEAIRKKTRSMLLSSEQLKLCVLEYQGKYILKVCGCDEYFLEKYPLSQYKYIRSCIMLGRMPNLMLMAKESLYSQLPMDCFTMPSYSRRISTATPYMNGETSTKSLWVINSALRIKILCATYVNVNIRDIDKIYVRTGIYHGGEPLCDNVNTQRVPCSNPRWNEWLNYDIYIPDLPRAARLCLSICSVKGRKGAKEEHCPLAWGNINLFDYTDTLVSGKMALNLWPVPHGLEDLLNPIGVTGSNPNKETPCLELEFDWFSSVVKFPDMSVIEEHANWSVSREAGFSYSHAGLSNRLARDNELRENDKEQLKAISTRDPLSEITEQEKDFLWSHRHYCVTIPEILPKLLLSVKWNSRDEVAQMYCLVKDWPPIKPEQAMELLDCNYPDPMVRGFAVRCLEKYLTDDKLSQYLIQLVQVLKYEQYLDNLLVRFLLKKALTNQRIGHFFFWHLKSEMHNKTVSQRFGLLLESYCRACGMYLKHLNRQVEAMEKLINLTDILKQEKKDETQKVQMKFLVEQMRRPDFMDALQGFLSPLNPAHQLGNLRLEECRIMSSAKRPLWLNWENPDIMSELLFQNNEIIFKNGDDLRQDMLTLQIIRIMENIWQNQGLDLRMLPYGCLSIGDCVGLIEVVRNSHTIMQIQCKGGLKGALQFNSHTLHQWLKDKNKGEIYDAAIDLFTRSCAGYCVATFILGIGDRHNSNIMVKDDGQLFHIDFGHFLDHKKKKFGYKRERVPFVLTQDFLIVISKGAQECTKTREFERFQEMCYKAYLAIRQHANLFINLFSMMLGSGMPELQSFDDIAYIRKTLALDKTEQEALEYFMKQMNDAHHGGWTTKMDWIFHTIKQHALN
UniProt P42338, whole entry: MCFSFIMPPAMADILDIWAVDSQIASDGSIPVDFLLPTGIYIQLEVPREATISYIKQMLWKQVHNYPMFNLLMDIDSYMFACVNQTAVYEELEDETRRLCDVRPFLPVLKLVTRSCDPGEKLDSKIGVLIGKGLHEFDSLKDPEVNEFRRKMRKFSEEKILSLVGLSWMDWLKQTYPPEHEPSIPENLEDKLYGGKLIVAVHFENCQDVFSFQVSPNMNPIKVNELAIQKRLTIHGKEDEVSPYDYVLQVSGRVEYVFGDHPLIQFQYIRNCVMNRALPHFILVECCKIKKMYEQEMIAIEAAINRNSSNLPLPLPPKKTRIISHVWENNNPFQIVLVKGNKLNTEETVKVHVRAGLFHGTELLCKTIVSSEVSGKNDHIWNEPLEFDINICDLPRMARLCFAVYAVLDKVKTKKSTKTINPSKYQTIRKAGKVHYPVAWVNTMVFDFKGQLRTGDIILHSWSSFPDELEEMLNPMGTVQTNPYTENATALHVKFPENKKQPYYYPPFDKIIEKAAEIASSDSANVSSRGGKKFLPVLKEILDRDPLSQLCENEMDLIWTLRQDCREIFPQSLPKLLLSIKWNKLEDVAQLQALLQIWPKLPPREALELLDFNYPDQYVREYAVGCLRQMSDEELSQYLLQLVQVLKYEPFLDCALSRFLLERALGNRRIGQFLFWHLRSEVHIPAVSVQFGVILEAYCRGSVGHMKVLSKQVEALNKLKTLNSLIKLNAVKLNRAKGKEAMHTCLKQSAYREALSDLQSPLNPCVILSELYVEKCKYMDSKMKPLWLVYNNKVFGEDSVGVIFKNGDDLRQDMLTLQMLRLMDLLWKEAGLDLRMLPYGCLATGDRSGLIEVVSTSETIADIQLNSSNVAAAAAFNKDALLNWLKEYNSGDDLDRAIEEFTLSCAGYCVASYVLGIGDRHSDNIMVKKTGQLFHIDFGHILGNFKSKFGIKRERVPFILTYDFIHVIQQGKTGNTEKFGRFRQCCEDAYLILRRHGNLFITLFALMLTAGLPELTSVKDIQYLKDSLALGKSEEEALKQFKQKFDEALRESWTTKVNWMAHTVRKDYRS
UniProt P48736, whole entry: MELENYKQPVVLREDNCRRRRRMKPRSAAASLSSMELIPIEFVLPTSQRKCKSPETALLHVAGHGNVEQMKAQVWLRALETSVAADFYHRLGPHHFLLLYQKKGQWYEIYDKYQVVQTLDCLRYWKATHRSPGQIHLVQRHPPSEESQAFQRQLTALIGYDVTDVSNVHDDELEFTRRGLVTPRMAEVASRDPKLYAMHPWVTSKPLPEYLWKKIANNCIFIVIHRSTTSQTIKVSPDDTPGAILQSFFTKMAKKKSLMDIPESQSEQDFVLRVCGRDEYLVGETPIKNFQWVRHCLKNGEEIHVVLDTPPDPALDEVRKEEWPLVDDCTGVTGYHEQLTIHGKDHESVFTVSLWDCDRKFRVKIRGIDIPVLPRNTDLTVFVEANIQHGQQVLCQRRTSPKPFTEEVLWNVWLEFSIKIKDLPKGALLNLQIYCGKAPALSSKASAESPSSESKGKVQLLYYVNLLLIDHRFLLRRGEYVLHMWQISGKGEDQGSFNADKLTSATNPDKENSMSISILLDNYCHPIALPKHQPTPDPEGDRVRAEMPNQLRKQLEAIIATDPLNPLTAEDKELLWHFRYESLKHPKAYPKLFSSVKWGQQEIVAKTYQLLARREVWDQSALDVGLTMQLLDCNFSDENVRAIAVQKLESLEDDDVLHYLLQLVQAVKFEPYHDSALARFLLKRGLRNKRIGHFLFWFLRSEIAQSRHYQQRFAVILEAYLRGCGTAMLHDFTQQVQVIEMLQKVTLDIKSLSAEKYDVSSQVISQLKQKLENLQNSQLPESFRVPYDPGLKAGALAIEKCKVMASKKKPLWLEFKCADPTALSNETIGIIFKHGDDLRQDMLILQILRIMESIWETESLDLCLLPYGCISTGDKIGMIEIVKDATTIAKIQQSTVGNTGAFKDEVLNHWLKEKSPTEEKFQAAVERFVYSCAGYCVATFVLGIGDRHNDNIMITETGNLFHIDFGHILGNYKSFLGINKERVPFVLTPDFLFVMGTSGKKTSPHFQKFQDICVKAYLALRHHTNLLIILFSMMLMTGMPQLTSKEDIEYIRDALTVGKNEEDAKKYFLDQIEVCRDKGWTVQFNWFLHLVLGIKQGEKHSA
UniProt O00329, whole entry: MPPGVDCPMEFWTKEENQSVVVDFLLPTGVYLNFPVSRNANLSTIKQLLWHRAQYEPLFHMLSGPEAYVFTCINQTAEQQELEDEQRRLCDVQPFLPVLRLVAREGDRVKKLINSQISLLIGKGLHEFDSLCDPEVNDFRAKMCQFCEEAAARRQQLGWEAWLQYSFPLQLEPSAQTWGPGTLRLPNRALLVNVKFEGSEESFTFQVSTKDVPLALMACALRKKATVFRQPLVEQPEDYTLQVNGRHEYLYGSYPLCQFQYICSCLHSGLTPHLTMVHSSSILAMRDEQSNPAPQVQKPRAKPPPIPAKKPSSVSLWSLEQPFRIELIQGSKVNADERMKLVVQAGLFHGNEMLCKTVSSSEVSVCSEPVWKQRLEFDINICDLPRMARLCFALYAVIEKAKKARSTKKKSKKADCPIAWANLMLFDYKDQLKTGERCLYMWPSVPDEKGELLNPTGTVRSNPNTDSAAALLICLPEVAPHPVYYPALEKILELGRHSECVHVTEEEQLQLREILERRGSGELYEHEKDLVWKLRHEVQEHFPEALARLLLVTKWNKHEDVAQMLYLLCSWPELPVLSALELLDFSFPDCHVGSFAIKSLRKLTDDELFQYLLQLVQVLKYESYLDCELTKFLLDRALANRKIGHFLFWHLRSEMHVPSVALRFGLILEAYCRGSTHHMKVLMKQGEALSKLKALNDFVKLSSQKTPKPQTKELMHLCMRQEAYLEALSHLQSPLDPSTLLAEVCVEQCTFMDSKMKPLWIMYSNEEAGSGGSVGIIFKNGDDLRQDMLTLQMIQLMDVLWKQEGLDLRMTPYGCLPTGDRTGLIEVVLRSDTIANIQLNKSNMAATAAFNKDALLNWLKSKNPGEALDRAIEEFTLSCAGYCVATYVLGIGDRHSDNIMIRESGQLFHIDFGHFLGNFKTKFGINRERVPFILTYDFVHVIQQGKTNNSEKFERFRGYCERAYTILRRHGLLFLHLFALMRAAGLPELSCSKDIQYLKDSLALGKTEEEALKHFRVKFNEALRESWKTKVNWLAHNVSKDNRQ
UniProt P27986, whole entry partner: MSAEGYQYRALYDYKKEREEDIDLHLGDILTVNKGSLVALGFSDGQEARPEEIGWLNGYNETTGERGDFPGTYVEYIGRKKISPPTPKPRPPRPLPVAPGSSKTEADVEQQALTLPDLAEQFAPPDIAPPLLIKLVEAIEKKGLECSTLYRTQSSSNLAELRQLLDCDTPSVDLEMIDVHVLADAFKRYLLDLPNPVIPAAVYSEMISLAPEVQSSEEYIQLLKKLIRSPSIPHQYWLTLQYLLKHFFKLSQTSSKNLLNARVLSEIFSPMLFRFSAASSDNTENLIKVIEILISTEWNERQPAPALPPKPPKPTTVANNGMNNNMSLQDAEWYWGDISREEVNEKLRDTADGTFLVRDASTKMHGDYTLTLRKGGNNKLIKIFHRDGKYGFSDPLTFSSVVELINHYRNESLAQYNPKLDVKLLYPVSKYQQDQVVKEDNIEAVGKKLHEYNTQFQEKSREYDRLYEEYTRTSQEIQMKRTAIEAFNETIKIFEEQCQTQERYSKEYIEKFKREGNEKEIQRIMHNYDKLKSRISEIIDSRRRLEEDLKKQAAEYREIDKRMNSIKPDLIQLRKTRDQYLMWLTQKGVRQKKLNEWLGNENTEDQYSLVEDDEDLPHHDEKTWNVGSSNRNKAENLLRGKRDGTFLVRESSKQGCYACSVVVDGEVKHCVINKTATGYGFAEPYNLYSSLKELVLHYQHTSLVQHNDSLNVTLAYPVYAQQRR

Assays:
p110α/p85α = p110α/p85α (Homo sapiens (Human), UniProt P42336); assay: PI 3-Kinase (human) HTRF assay, p110α/p85α; format: biochemical; details: read-out: PI3K α IC50
p110β/p85α = p110β/p85α (Homo sapiens (Human), UniProt P42338); assay: PI 3-Kinase (human) HTRF assay, p110β/p85α; details: read-out: PI3K β IC50
p110γ = p110γ (Homo sapiens (Human), UniProt P48736); assay: PI 3-Kinase (human) HTRF assay, p110γ; format: biochemical; details: read-out: PI3K γ IC50
p110δ/p85α = p110δ/p85α (Homo sapiens (Human), UniProt O00329); assay: PI 3-Kinase (human) HTRF assay, p110δ/p85α; format: biochemical; details: read-out: PI3K δ IC50

Compound	IC50 (p110α/p85α) [µM]	IC50 (p110β/p85α) [µM]	IC50 (p110γ) [µM]	IC50 (p110δ/p85α) [µM]
Nc1nc2cc(-c3ccc4ncn(-c5ccccc5)c4c3)ccc2o1	< 0.1	< 10	< 1	
Nc1nc2cc(-c3ccc4ncc(-c5ccc(N6CCOCC6)nc5)n4c3)ccc2o1	< 0.1	< 1	< 1	< 1
